Measurements reported in PubChem BioAssay AID488837 (National Center for Advancing Translational Sciences (NCATS), 2010).
Hit rate of the full screen: of about 330,000 compounds, about 20 (0.006%) were called active. These results got no clear call from the source, so the numbers are uncertain. Calls come from the whole dose curve; as a rule, active = well fitted inhibition curve with a large enough effect; inconclusive = small, poorly fitted or top-dose-only effect, or effect the other way; inactive = flat fitted curve, though single readings scatter.

Sequences of proteins named here, by UniProt entry; tags and fusion partners are left off. A change or cut given only in a name is not applied to a line headed by its entry.
UniProt O00167: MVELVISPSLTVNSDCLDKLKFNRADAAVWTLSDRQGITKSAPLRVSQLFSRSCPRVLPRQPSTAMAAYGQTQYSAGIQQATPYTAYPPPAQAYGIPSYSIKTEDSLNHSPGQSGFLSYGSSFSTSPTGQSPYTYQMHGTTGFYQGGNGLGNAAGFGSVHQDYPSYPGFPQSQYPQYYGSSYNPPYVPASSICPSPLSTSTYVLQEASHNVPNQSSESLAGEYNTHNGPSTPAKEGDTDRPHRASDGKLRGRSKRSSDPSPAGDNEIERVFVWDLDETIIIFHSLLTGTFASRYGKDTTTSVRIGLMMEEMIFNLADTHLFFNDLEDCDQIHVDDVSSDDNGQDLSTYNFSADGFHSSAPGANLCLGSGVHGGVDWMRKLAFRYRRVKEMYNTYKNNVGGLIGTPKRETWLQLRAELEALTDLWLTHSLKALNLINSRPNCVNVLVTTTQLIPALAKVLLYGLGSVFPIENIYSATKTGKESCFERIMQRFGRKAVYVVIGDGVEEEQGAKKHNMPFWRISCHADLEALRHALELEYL

target: Protein phosphatase EYA2 (Homo sapiens) (UniProt O00167); assay: qHTS Assay for Inhibitors of the Phosphatase Activity of Eya2; details: recombinant Eya2, OMFP fluorescence dephosphorylation (OMFP is methylfluorescein phosphate)
Excerpt: The Eya family of proteins are essential co-activators of the Six1 transcription factor. Six1 is a developmental gene that is abnormally re-expressed in a large percentage of breast cancers. This over-expression plays a causal role in the initiation and metastatic development of breast cancers. The Eya family of proteins was also found to contain a unique HAD phosphatase domain with protein tyrosine phosphatase activity which can potentially play a role in Six1-mediated breast tumorigenesis. […] We have developed and optimized a 1536 well fluorescence-based HTS assay targeting the phosphatase activity of Eya2. Inhibitors found against Eya2 could serve as potential therapeutic tools to inhibit Six1-mediated breast tumorigenesis and to increase the efficiency of radiation and certain chemo therapy. These inhibitors could also be used as chemical probes to study the function of Eya2's phosphatase activity and its role in Six1-mediated breast tumorigenesis.
The Eya2 enzyme was kindly provided by the laboratory of Dr. Rui Zhao. The 3-O-methyl-fluorescein phosphate (OMFP) substrate and all buffer reagents were purchased from Sigma Aldrich. qHTS Assay Setup: 1. Buffer- 50 mM HEPES pH 7.5, 50 mM NaCl, 5 uM MgCl2, 0.05% BSA, 1 mM DTT. 2. OMFP Stock- 10 mM solution prepared in 100% DMSO and stored in single use aliquots at -20C. Assay Procedure- 1. Dispense 1.5 ul per well of Eya2 at 0.2 uM in black medium binding 1536 well Greiner plate 2. Transfer 23 nl of compound and control compound (EGTA) to plate 3. Incubate at ambient for 10 minutes 4. Dispense 1.5 ul per well of OMFP at 50 uM 5. Incubate at ambient for 10 minutes 6. Read on ViewLux using Excitation = 485 nm, Emission = 525 nm
Potency is the fitted concentration of half-maximal effect.

Compound	Potency
O=[As](O)(c1ccc(O)cc1)c1ccccc1O	inconclusive: 31.6 µM
O=C(OC1CN2CCC1CC2)c1ccc(Cl)cc1 (stereo unspecified)	inconclusive: 316 µM
Nc1cccc2c([As](=O)(O)O)cccc12	inconclusive: 141 µM
CC(=O)Nc1ccc([As](=O)(O)O)c(O)c1	inconclusive: 79.4 µM
Cc1ccccc1OP(=O)(Nc1ccccn1)Oc1ccccc1C	inconclusive: 1000 µM
Nc1cc(N)c2nonc2c1[N+](=O)[O-]	inconclusive: 112 µM
